Nrf2 activator: activators of Nrf2 (ARE) signaling; Potency, µM (doses to about 46.1 µM), for the others: at the highest dose activation, usual class: activators; AREc32 ARE-luciferase reporter (MCF7-derived line), luminescence, 24 h; 0.31% of 410,000 active; further: potency means the concentration at half of the fitted maximal effect; % of control where 0% means no effect; nearly all actives have a fitted effect of over 65% in size
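Quantitative high-throughput format: AREc32 reporter cells, 1000 per well, received compound by pin transfer and were incubated 24 hr at 37 deg C, 5% CO2, before Steady-Glo luminescence detection.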
miR-21 reporter: miR-21 reporter, rising signal; Potency, µM (top dose mostly 38.3 µM), for the others: at the highest dose reporter change, positive = more light; 340,000 tested, under 10 active; HeLa miR-21 FLuc reporter, luciferase, 48 h; active = well fitted rising curve with a large enough effect; inconclusive = small, poorly fitted or top-dose-only effect; inactive = no such curve, though single readings can be large or run the other way;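 note: % of control where 0% means no effect; miR-21 action dims this reporter so a rising signal means less miR-21 action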
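HeLa cells endogenously expressing miR-21, stably carrying CMV-driven firefly luciferase with a downstream miR-21 binding site, 2000 cells/well. Titrations up to approximately 40 uM, 48 hours; luciferase luminescence read.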
A549 tox: A549 cytotoxicity, counter-screen for Nrf2 inhibitors; 0.16% of 390,000 active; Potency, µM (highest dose often 46 µM), without a hit: at the highest dose activity change, negative = cytotoxicity, actives largely listed as inhibitors; A549 ARE-Fluc cells, CellTiter-Fluor viability, 18-24 h; further: potency means the concentration at half of the fitted maximal effect; on the % scale 0 is the no-effect control and ±100 the full control effect
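A549 ARE_Fluc cells in 5% FBS OPTI-MEM were exposed to compounds in concentration-response for 18-24 h at 37 deg C. Viability was read by CellTiter-Fluor fluorescence (Ex 405/Em 525) after 30 min, before the luciferase read.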
ClpP mod: qHTS Assay for Activators of ClpP; ATP-dependent Clp protease proteolytic subunit (Bacillus subtilis (strain 168)), P80244; purified B. subtilis ClpP, FRET peptide cleavage, 20 min; Potency, µM (highest dose often 57.5 µM), inactives show at the top dose activity change, negative = active; 1.9% of 340,000 active; AID 651965, 2013; active means well fitted falling curve with a large enough effect; inconclusive means small, poorly fitted or top-dose-only effect; inactive means no such curve, though single readings can be large or run the other way; further: potency means the concentration at half of the fitted maximal effect; the source files actives as falling curves though it sought activators and does not explain the sign; nearly all actives have a fitted effect of over 65% in size
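Buffer: 100 mM Tris/HCl pH8, 100 mM KCl, 0.05% low protease BSA, 2.5% glycerol, 0.01% Tween-20. ClpP 10 microg/mL final; 20 min RT; delta FRET normalized to ADEP and DMSO controls.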
Nrf2 block: inhibitors of Nrf2 signaling; A549 ARE-Fluc reporter, luciferase luminescence, 18-24 h; Potency, µM (top dose mostly 46 µM), inactives show at the top dose activity change, negative = inhibition, most hits filed as inhibitors; 2.1% of 360,000 active; further: potency means the concentration at half of the fitted maximal effect; on the % scale 0 is the no-effect control and ±100 the full control effect; nearly all actives have a fitted effect of over 60% in size
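Concentration-response testing used A549 ARE_Fluc cells at 5000 cells/well. Following an 18-24 h compound incubation, viability was read by fluorescence (Ex 405/Em 525) and luciferase output by luminescence.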
TCR act: activates T cell receptor signaling | primary human leukocytes, anti-CD3, IL-2 HTRF, 48 h | Potency, µM (highest dose often 9.22 µM), for the others: at the highest dose activation of IL-2 secretion, actives largely listed as activators | 330,000 tested, under 10 active | AID 504894; further: % of control where 0% means no effect
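IL-2 release read by HTRF sandwich (Eu cryptate donor, d2 acceptor, 665 nm emission) after 48 hr exposure of primary human leukocytes to compound together with anti-CD3 beads in the absence of co-stimulatory signals.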
* = called active by the depositor; ? = inconclusive; . = not tested or not shown; [ ] = remark or other dose. An excerpt weighted towards active compounds, which were near 3.7% of everything screened. Unless noted, the call rests on the fitted dose curve; in most records, active means well fitted curve in the direction sought with a large enough effect; inconclusive means small, poorly fitted or top-dose-only effect, or another doubt; inactive means no such curve, though single readings can be large; an effect the other way counts as inactive or inconclusive.

SMILES	Nrf2 activator	miR-21 reporter	A549 tox	ClpP mod	Nrf2 block	TCR act
COc1cccc(-c2ncc3ccccc3c2COC(=O)c2ccc(Br)cc2)c1	3.4%	.	4.1%	-21.4%	-19.0%	5.7%
O=C(OCc1c(-c2ccccc2)ncc2ccccc12)c1ccc(Br)cc1	-0.4%	.	-6.1%	-18.2%	14.6µM*	2.3%
O=C(OCc1c(-c2ccccc2)ncc2ccccc12)c1cccs1	?	.	?	?	16.4µM*	-0.4%
CN(C)C(=O)OCc1c(-c2ccccc2)ncc2ccccc12	-0.5%	.	0.7%	-7.5%	-28.8%	-5.5%
O=C1CCc2cc(S(=O)(=O)Nc3cccc(Br)c3)ccc2N1	.	.	-1.9%	.	?	.
COc1ccc(-c2[nH]c(-c3cc(OC)c4c(c3)OCO4)nc2-c2ccccc2)cc1	2.1%	21.1%	?	?	23.1µM*	3.8%[46.1 µM]
COc1cc(-c2nc(-c3ccccc3)c(-c3ccc(Br)cc3)[nH]2)cc(OC)c1O	-0.8%	?	-14.1%	4.6%	-17.0%	.
CNc1ccccc1C(=O)OC(C)C(=O)Nc1ccc(S(=O)(=O)N2CCCC2)cc1 (stereo unspecified)	0.1%	9.8%	?	28.2µM*	?	-2.2%
COc1ccc(-c2nc3c(=O)n(C)c(=O)nc-3n(C)n2)cc1	.	.	1.64µM*	-2.9%	1.46µM*	.
CCn1nc(-c2ccccc2C)nc2c(=O)n(C)c(=O)nc1-2	.	.	23.1µM*	-1.6%	2.5%	.
Cn1nc(-c2ccc(F)cc2)nc2c(=O)n(C)c(=O)nc1-2	.	.	2.91µM*	0.0%	2.31µM*	.
Cn1nc(-c2ccc(Cl)cc2)nc2c(=O)n(C)c(=O)nc1-2	.	?	8.2µM*	-6.1%	-123.6%	.
Cn1nc(-c2ccccc2)nc1-c1ccccc1	20.1%	.	4.9%	-1.7%	?	-3.2%
COc1ccc(S(=O)(=O)N2CCC(C(=O)N[C@@H](C)C(=O)NCc3cccnc3)CC2)cc1	-0.3%	.	.	-3.9%	.	.
Cc1cc(C)cc(N2C(=O)CSC23C(=O)N(CC(=O)Nc2ccc(F)cc2F)c2ccccc23)c1 (stereo unspecified)	-0.9%	-3.3%	-14.8%	-0.5%	21.0%	.
CCC(C)NC(=O)c1ccc2c(c1)nc1n2CCCCC1 (stereo unspecified)	-1.3%	-1.4%	-1.1%	-3.1%	.	.
Cn1nc(-c2cccnc2)nc2c(=O)n(C)c(=O)nc1-2	.	.	6.51µM*	-1.9%	7.31µM*	.
Cc1cc(C)n2nc(-c3cccnc3)nc2n1	1.4%	-15.5%	2.2%	-0.7%	.	-20.2%
CCOC(=O)N1CCN(C(=O)c2ccc(N(C)S(=O)(=O)c3ccc(C)cc3)cc2)CC1	0.1%	11.6%	-10.5%	-0.6%	23.1µM*	-0.7%
COc1ccc(N2CCN(C(=O)c3ccc(N(C)S(=O)(=O)c4ccc(OC)cc4)cc3)CC2)cc1	2.9%	11.4%	10.2%	.	25.9µM*	-3.5%
COc1ccc(N2CCN(C(=O)c3ccccc3NS(=O)(=O)c3ccccc3)CC2)cc1	4.8%	-29.2%	0.2%	28.2µM*	11.3%	1.7%
Cc1ccc(S(=O)(=O)N(C)c2ccc(C(=O)N3CCCCC3)cc2)cc1	-0.2%	13.3%	-12.6%	-2.0%	?	0.4%
COc1ccc(N2CCN(C(=O)c3ccc(N(C)S(=O)(=O)c4ccc(C)cc4)cc3)CC2)cc1	0.5%	11.6%	-10.1%	.	18.4µM*	-2.9%
Cn1cc(C(=O)c2ccc(Cl)cc2Cl)cc1C(=O)N/N=C(\N)COc1ccc(Cl)cc1	-0.6%	?	-20.0%	.	13µM*	0.6%
Cn1cc(C(=O)c2ccc(Cl)cc2Cl)cc1C(=O)N/N=C(\N)COc1ccccc1	0.4%	10.7%	-11.0%	-2.3%	?	-0.2%
Cn1cc(C(=O)c2ccc(Cl)cc2Cl)cc1C(=O)N/N=C(\N)COc1ccc(Cl)cc1Cl	-1.2%	?	?	-1.3%	20.6µM*	-3.9%

Four of the entries above in order of the Nrf2 activator value, descending:
Structure | Nrf2 activator
COc1ccc(N2CCN(C(=O)c3ccccc3NS(=O)(=O)c3ccccc3)CC2)cc1 | 4.8%
Cc1ccc(S(=O)(=O)N(C)c2ccc(C(=O)N3CCCCC3)cc2)cc1 | -0.2%
Cn1cc(C(=O)c2ccc(Cl)cc2Cl)cc1C(=O)N/N=C(\N)COc1ccc(Cl)cc1 | -0.6%
Cn1cc(C(=O)c2ccc(Cl)cc2Cl)cc1C(=O)N/N=C(\N)COc1ccc(Cl)cc1Cl | -1.2%

Single records, from the list above.
Cn1cc(C(=O)c2ccc(Cl)cc2Cl)cc1C(=O)N/N=C(\N)COc1ccccc1 is listed as Nrf2 activator = 0.4%; miR-21 reporter = 10.7%; A549 tox = -11.0%; ClpP mod = -2.3%; Nrf2 block = ?; TCR act = -0.2%
Cn1cc(C(=O)c2ccc(Cl)cc2Cl)cc1C(=O)N/N=C(\N)COc1ccc(Cl)cc1 is listed as Nrf2 activator = -0.6%; miR-21 reporter = ?; A549 tox = -20.0%; ClpP mod = .; Nrf2 block = 13µM*; TCR act = 0.6%

Screening results (PubChem)
